From publication PMC3483449 (FEBS letters, 2012)

Biological target: T1, mouse aminoacylase 3 (mouse, UniProt Q91XE4 1-318)
T1 sequence (looked up): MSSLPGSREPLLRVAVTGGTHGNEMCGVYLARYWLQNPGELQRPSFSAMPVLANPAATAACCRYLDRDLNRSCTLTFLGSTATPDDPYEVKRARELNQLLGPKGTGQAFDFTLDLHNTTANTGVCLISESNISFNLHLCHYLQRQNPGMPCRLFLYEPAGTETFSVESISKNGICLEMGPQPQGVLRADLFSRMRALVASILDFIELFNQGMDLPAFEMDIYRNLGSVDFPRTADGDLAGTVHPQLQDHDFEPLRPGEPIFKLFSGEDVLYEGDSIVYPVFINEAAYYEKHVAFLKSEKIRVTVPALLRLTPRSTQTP
Assay: SPR

B1: hepatitis C virus core protein (1-177 a.a.) (natural protein)
chain: MSTLPKPQRKTKRNTIRRPQDVKFPGGGQIVGGVYLLPRRGPRLGVRATRKTSERSQPRGRRQPIPKARRPEGRTWAQPGYPWPLYGNEGCGWAGWLLSPRGSRPSWGPTDPRRRSRNLGKVIDTLTCGFADLMGYIPLVGAPLGGAARALAHGVRVLEDGVNYATGNLPGCSFSIF
Kd: 10.1 ± 4.3 µM
